Legend:
μ-opioid receptor [1] = molecular target: T1, μ-opioid receptor (Homo sapiens (Human), UniProt P35372); experiment: In vitro mu-opioid receptor binding assay ([3H]-diprenorphine displacement); conditions: read-out: Ki [Average ± Std Deviation] Opioid Receptor Mu
[2] = molecular target: T2, human opioid receptor-like (ORL-1) (Homo sapiens (Human), UniProt P41146); experiment: In vitro ORL-1 receptor [35S]GTPγS functional assay; type: biochemical; conditions: mean ± SEM; for EC50: read-out: GTPγS ORL-1 EC50
delta opioid receptor = delta opioid receptor (Homo sapiens (Human), UniProt P41143); experiment: In vitro delta-opioid receptor binding assay ([3H]-Naltrindole displacement)
[3] = molecular target: T2, human opioid receptor-like (ORL-1); experiment: In vitro ORL-1 receptor binding assay ([3H]-nociceptin displacement)
kappa opioid receptor [4] = molecular target: T3, kappa opioid receptor (Homo sapiens (Human), UniProt P41145); experiment: In vitro kappa-opioid receptor [35S]GTPγS functional assay; type: biochemical; conditions: mean ± SEM; for EC50: read-out: GTPγS Opioid Receptor Kappa EC50
μ-opioid receptor [5] = molecular target: T1, μ-opioid receptor; experiment: In vitro mu-opioid receptor [35S]GTPγS functional assay; conditions: mean ± SEM; for EC50: read-out: GTPγS Opioid Receptor Mu EC50
kappa opioid receptor [6] = molecular target: T3, kappa opioid receptor; experiment: In vitro kappa-opioid receptor binding assay ([3H]-U69,593 displacement)

SMILES | Ki (μ-opioid receptor [1]) [nM] | GTPγS ORL-1 Emax [2] [%] | Ki (delta opioid receptor) [nM] | Ki [3] [nM] | GTPγS Opioid Receptor Kappa Emax (kappa opioid receptor [4]) [%] | GTPγS Opioid Receptor Mu Emax (μ-opioid receptor [5]) [%] | Ki (kappa opioid receptor [6]) [nM] | EC50 (kappa opioid receptor [4]) [nM] | EC50 [2] [nM] | EC50 (μ-opioid receptor [5]) [nM]
O=C(O)c1nc2ccccc2n([C@H]2C[C@H]3CC[C@@H](C2)N3C23CCC(CC2)C3)c1=O | 5490 | 74.7 ± 3.8 | > 20000 | 128 | – | – | – | – | – | –
O=C(NCC(O)CO)c1nc2ccccc2n([C@H]2C[C@H]3CC[C@@H](C2)N3C2CCCCCCC2)c1=O (stereo partly shown) | 391 | 107.3 ± 2.4 | 42000 | 12 | 10.3 ± 1.8 | 10.8 ± 2.1 | 380 | – | – | –
CCOC(=O)[C@@H]1CN(CCNc2nc3ccccc3n([C@H]3C[C@H]4CC[C@@H](C3)N4C3CCCCCCC3)c2=O)C[C@H]1C(=O)OCC | – | 68 ± 3 | > 20000 | 24.6 | 11.7 ± 0.3 | – | 16.2 | 429 | 214 | –
O=C(N[C@H](C(=O)O)c1ccccc1)c1nc2ccccc2n([C@H]2C[C@H]3CC[C@@H](C2)N3C2CCCCCCC2)c1=O | 400 | 74.7 ± 1.8 | 2570 | 24.6 | 31.3 ± 3.8 | 14.0 | 49.3 | – | – | –
NC(=O)CNc1nc2ccccc2n([C@@H]2C[C@H]3CC[C@@H](C2)N3C2CCCCCCC2)c1=O | 6700 | 73.7 ± 4.4 | 26500 | 234 | – | – | 4330 | – | – | –
COc1nc2ccccc2n([C@H]2C[C@H]3CC[C@@H](C2)N3C2CCCCCCC2)c1=O | 248 | – | – | 4.2 | – | – | 161 | – | – | –
CC(NC(=O)c1nc2ccccc2n([C@H]2C[C@H]3CC[C@@H](C2)N3C2CCCCCCC2)c1=O)C(=O)O (stereo partly shown) | – | 56.5 ± 2.3 | – | – | 20.3 ± 2.6 | – | 172 | – | – | –
O=C(O)C(=O)N1CC2CN(c3nc4ccccc4n(C4CC5CCC(C4)N5C4CCCCCCC4)c3=O)CC2C1 (stereo not shown) | 2920 | 69.7 ± 5.2 | > 20000 | 71.4 | 0.3 | – | 488 | > 20000 | 1620 | –
CC(C)CC(C)N1[C@@H]2CCC[C@H]1C[C@@H](n1c(=O)c(C(=O)O)nc3ccccc31)C2 (stereo partly shown) | – | 102.7 ± 2.7 | – | – | 6.7 ± 1.2 | – | 523 | – | – | –
O=C(N[C@H](C(=O)O)c1ccccc1)c1nc2ccccc2n([C@H]2C[C@H]3CCC[C@@H](C2)N3C2CCCCCCC2)c1=O | 443 | 57.7 ± 2 | 106 | 9 | 8.7 ± 1.3 | 12 ± 1.8 | 63.4 | – | – | –
O=c1c(N2CCOCC2)nc2ccccc2n1C1CCN(C2CCCCCCC2)CC1 | 13500 | 43 ± 1.7 | 76300 | – | – | – | – | – | 1850 | –
CC(C)CC(NC(=O)c1nc2ccccc2n([C@H]2C[C@H]3CC[C@@H](C2)N3C2CCCCCCC2)c1=O)C(=O)O (stereo partly shown) | 452 | 67 ± 53 | 2220 | 35.8 | 12.0 ± 4.0 | 12.3 ± 0.3 | 35.3 | 3950 | 269 | 21200
CC(C)CC(C)N1[C@@H]2CC[C@H]1C[C@@H](n1c(=O)c(C(=O)O)nc3ccccc31)C2 (stereo partly shown) | 1760 | 86.5 ± 2.6 | 2860 | 50 | 30.3 | – | 480 | – | – | –
O=C(O)CN1CCN(c2nc3ccccc3n([C@H]3C[C@H]4CC[C@@H](C3)N4C3CCCCCCC3)c2=O)CC1 | – | 78 | – | – | 10.7 | – | 220 | > 20000 | – | –
O=C(O)[C@@H]1CN(CCNc2nc3ccccc3n([C@H]3C[C@H]4CC[C@@H](C3)N4C3CCCCCCC3)c2=O)C[C@H]1C(=O)O | 37200 | – | > 20000 | 104 | – | – | 672 | – | – | –
O=c1c(NCC(O)CO)nc2ccccc2n1[C@H]1C[C@H]2CC[C@@H](C1)N2C1CCCCCCC1 (stereo partly shown) | 394 | 113.7 ± 2.0 | 21900 | 5.54 | 10.3 ± 0.9 | 16.3 ± 1.2 | 224 | – | – | –
O=C(O)CC1CCN(c2nc3ccccc3n(C3CCN(C4CCCCCCC4)CC3)c2=O)C1 (stereo not shown) | 12800 | 84 ± 10 | 35600 | 189 | – | – | 19300 | – | 3020 | –

SMILES | Ki (μ-opioid receptor [1]) [nM] | GTPγS ORL-1 Emax [2] [%] | Ki (delta opioid receptor) [nM] | Ki [3] [nM] | GTPγS Opioid Receptor Kappa Emax (kappa opioid receptor [4]) [%] | GTPγS Opioid Receptor Mu Emax (μ-opioid receptor [5]) [%] | Ki (kappa opioid receptor [6]) [nM] | EC50 (kappa opioid receptor [4]) [nM] | EC50 [2] [nM] | EC50 (μ-opioid receptor [5]) [nM]
O=C(O)c1nc2ccccc2n([C@H]2C[C@H]3CC[C@@H](C2)N3C2CCCCCCC2)c1=O | 678 | 113.3 ± 3.3 | 47400 | 12.6 | 11.3 ± 1.5 | 10.0 ± 0.6 | 630 | – | – | –
CSCCC(NC(=O)c1nc2ccccc2n([C@H]2C[C@H]3CC[C@@H](C2)N3C2CCCCCCC2)c1=O)C(=O)O (stereo partly shown) | – | 92.7 ± 2.3 | 2040 | – | 32.3 ± 9.2 | – | 210 | – | – | –
O=C(O)c1nc2ccc(F)cc2n([C@H]2C[C@H]3CC[C@@H](C2)N3C2CCCCCCC2)c1=O | – | 81.3 ± 3.0 | 25000 | – | – | – | – | – | – | –
CC(C)(NC(=O)c1nc2ccccc2n([C@H]2C[C@H]3CC[C@@H](C2)N3C2CCCCCCC2)c1=O)C(=O)O | 60.2 | 97.7 ± 2.9 | 12200 | 77.5 | 24.7 ± 8.7 | 10.3 ± 0.3 | 144 | 28900 | 379 | 63400
CC1(N2CCC(n3c(=O)c(C(=O)O)nc4ccccc43)CC2)CCCCCCC1 | – | 88 ± 5 | > 20000 | – | – | – | – | – | 207 | –
O=C(NCc1nn[nH]n1)c1nc2ccccc2n([C@H]2C[C@H]3CC[C@@H](C2)N3C2CCCCCCC2)c1=O | 1160 | 58.3 ± 3.9 | > 20000 | 157 | – | – | 1720 | – | – | –
O=C(O)CC(NC(=O)c1nc2ccccc2n([C@H]2C[C@H]3CC[C@@H](C2)N3C2CCCCCCC2)c1=O)C(=O)O (stereo partly shown) | – | 81.3 ± 3.2 | 8680 | – | – | – | – | – | – | –
CCOC(=O)C1CN(CCNc2nc3ccccc3n([C@H]3C[C@H]4CC[C@@H](C3)N4C3CCCCCCC3)c2=O)C[C@H]1C(=O)OCC (stereo partly shown) | – | 66.3 ± 2.4 | 67100 | 62.2 | 13.0 ± 1.7 | – | 31.2 | – | – | –
CC1(C)[C@H]2CC[C@@H](CCN3[C@@H]4CC[C@H]3C[C@@H](n3c(=O)c(C(=O)O)nc5ccccc53)C4)[C@@H]1C2 | 670 | 61.8 | 758 | 1.4 | 9.8 | 9.5 | 63 | – | – | –
CCOC(=O)c1nc2ccccc2n([C@H]2C[C@H]3CCC[C@@H](C2)N3C(C)CCC(C)C)c1=O (stereo partly shown) | 487 | 82.0 ± 2 | 1400 | 29.8 | 10 ± 0.6 | 40.7 ± 3.2 | 162 | – | – | –
O=c1c(NC[C@@H](O)CO)nc2ccccc2n1[C@H]1C[C@H]2CC[C@@H](C1)N2C1CCCCCCC1 | 576 | 112.3 ± 6.3 | 49100 | 6.5 | 5.7 ± 0.3 | 8.7 ± 3.4 | 156 | – | – | –
CCOC(=O)c1nc2ccccc2n([C@H]2C[C@H]3CCC[C@@H](C2)N3C(C)CC(C)C)c1=O (stereo partly shown) | – | 98.3 ± 1.7 | 2860 | 9.9 | 7 ± 0.6 | 56 ± 6.5 | 85.4 | – | – | –
CCOC(=O)c1nc2ccccc2n([C@@H]2C[C@H]3CCC[C@@H](C2)N3C/C=C2\CCC3CC2C3(C)C)c1=O | – | 87.0 | 386 | 10.5 | 5.3 | 21.7 | 20.6 | – | – | –
NC(=O)c1nc2ccccc2n([C@H]2C[C@H]3CC[C@@H](C2)N3C2CCCCCCC2)c1=O | 819 | 113 ± 8 | 25200 | 4.42 | 17 ± 2.7 | 13 ± 2.1 | 154 | – | – | –
O=C(O)c1nc2ccccc2n([C@H]2C[C@H]3CCC[C@@H](C2)N3C2/C=C\CCCCC2)c1=O (stereo partly shown) | 3290 | 80.3 ± 2.2 | 5440 | 3.6 | 6.0 ± 1.5 | – | 365 | – | – | –
CC(C)CCC(C)N1[C@@H]2CCC[C@H]1C[C@@H](n1c(=O)c(C(=O)O)nc3ccccc31)C2 (stereo partly shown) | – | 90.0 ± 2 | 1100 | – | – | – | – | – | – | –

Source: US8846929B2, “Substituted-quinoxaline-type piperidine compounds and the uses thereof” (priority 2007, dated 2014)
